Series [1] concerns GPS genomic biomarker signature (200 genes) in MUTZ-3 cells. Put plainly: GARD assay for skin sensitizers (GARD Prediction Signature, GPS).
Series [2] concerns GRPS genomic biomarker signature (389 transcripts) in MUTZ-3 cells. Put plainly: GARD assay with GARD Respiratory Prediction Signature (GRPS), SVM classification of respiratory sensitizers. As to conditions: replicate stimulation 2; 24 h at GARD input concentration; independent test dataset; > 0 = respiratory sensitizer.

On to `NCCN` [Ethylenediamine], for which the “Prediction in the GARD assay (skin sensitization)” value in series [1] is given as “accurately predicted as skin sensitizers”. Take `OCC=Cc1ccccc1` [Cinnamyl alcohol]: the “SVM decision value 2” value in series [2] was −1.44.
